The values that follow come from ChEMBL document CHEMBL5131515, “Identification of Pyridinyltriazine Derivatives as Potent panFGFR Inhibitors against Gatekeeper Mutants for Overcoming Drug Resistance” (J Med Chem, 2022).

Chains of the proteins cited; added tags and fusions are not shown. Lines headed by an entry give the natural chain unless they say otherwise; changes in a name come on top.
UniProt P06239: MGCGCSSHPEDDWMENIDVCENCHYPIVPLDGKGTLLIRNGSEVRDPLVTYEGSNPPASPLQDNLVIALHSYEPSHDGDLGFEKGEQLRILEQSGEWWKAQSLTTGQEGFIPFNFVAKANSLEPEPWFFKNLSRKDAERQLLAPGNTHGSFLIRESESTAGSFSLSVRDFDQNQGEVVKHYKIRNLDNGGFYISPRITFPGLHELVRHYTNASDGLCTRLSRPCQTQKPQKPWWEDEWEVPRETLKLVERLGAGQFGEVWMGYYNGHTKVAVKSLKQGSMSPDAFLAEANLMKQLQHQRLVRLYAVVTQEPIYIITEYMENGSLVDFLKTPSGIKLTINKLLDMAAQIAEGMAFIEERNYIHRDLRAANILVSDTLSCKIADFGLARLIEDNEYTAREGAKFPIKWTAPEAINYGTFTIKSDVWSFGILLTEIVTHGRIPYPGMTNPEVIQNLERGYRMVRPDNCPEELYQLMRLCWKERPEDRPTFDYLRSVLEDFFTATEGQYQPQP
UniProt P08922: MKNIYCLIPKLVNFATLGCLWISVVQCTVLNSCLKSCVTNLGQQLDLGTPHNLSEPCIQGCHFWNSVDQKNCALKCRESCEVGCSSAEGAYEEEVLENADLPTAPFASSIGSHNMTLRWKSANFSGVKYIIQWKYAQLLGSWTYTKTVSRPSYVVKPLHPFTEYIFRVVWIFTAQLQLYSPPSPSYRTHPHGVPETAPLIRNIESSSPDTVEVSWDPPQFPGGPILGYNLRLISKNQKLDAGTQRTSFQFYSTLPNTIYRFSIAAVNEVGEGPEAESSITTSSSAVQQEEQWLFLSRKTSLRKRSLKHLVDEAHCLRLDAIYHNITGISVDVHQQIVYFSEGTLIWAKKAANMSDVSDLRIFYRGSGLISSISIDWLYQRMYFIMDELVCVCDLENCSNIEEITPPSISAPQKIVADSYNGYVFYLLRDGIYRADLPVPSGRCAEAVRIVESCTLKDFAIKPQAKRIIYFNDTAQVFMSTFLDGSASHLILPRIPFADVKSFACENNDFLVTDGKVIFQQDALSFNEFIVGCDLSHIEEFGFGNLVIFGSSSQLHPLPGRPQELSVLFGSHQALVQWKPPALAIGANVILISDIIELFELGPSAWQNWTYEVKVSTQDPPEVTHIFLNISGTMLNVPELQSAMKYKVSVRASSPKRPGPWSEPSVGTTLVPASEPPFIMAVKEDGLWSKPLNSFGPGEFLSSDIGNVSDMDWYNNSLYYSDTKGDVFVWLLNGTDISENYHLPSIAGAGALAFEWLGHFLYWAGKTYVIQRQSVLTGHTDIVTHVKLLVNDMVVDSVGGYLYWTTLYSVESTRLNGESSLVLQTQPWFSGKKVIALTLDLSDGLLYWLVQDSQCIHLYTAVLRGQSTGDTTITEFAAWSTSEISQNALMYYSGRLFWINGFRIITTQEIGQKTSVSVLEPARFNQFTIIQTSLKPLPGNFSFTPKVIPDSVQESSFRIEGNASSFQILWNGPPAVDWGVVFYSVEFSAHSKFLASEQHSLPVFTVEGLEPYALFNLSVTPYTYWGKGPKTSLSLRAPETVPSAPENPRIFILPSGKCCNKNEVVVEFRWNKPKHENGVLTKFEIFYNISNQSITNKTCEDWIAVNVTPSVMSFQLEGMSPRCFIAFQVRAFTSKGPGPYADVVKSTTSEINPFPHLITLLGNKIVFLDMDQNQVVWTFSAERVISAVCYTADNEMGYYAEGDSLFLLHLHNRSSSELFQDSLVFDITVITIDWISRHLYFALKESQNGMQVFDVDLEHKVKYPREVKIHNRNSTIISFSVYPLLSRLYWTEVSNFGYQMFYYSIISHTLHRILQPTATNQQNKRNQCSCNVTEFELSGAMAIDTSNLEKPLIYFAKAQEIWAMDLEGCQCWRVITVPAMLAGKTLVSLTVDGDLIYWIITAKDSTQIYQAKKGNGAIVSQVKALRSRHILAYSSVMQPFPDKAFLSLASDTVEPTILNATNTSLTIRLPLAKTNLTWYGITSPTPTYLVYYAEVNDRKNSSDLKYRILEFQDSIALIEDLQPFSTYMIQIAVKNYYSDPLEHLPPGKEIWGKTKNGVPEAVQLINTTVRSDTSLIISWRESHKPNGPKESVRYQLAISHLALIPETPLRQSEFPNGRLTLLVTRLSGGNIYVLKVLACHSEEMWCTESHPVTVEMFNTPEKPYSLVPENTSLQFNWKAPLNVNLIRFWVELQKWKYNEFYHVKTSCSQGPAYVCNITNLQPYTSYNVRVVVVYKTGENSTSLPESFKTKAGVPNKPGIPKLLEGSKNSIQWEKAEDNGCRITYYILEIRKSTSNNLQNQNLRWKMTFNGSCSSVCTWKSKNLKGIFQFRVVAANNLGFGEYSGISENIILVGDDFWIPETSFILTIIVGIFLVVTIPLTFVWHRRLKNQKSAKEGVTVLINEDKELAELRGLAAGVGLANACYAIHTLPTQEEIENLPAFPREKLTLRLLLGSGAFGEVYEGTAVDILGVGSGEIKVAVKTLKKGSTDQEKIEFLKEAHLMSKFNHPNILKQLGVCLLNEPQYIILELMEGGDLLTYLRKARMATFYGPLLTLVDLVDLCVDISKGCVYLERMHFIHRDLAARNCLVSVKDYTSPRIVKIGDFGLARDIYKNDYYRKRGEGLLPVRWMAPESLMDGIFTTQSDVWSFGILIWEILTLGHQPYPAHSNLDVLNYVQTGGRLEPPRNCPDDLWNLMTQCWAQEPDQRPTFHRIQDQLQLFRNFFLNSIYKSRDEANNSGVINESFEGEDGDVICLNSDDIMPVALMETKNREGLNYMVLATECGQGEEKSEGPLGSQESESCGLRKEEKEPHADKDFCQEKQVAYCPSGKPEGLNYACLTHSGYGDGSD
UniProt P11802: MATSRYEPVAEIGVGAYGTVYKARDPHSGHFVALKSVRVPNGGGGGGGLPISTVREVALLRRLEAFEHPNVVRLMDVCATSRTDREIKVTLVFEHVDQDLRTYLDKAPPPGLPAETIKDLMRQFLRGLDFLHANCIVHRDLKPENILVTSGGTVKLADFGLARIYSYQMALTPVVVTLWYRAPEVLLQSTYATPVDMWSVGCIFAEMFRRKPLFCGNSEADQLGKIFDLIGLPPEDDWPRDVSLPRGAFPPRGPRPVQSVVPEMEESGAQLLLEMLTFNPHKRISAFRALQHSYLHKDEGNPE
UniProt Q16816: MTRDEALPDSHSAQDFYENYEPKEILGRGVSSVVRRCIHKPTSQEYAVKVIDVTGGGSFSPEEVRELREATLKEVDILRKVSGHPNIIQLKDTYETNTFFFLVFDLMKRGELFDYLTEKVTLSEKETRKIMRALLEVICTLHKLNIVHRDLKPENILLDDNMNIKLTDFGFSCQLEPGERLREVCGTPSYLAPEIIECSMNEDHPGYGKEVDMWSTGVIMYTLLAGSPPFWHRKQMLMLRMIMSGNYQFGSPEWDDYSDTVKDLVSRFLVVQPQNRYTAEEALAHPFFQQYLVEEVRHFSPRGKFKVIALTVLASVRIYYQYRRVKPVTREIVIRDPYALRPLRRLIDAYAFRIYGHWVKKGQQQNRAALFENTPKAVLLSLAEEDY
UniProt Q00534, whole entry: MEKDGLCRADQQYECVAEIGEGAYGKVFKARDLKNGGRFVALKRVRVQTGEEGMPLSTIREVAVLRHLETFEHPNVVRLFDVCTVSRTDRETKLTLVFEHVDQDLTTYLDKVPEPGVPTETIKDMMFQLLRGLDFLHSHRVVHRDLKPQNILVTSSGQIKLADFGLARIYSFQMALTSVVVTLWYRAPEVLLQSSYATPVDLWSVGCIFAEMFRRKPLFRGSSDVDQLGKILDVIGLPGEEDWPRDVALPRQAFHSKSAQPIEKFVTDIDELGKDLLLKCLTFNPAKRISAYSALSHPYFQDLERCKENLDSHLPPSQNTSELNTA
UniProt P35968, whole entry: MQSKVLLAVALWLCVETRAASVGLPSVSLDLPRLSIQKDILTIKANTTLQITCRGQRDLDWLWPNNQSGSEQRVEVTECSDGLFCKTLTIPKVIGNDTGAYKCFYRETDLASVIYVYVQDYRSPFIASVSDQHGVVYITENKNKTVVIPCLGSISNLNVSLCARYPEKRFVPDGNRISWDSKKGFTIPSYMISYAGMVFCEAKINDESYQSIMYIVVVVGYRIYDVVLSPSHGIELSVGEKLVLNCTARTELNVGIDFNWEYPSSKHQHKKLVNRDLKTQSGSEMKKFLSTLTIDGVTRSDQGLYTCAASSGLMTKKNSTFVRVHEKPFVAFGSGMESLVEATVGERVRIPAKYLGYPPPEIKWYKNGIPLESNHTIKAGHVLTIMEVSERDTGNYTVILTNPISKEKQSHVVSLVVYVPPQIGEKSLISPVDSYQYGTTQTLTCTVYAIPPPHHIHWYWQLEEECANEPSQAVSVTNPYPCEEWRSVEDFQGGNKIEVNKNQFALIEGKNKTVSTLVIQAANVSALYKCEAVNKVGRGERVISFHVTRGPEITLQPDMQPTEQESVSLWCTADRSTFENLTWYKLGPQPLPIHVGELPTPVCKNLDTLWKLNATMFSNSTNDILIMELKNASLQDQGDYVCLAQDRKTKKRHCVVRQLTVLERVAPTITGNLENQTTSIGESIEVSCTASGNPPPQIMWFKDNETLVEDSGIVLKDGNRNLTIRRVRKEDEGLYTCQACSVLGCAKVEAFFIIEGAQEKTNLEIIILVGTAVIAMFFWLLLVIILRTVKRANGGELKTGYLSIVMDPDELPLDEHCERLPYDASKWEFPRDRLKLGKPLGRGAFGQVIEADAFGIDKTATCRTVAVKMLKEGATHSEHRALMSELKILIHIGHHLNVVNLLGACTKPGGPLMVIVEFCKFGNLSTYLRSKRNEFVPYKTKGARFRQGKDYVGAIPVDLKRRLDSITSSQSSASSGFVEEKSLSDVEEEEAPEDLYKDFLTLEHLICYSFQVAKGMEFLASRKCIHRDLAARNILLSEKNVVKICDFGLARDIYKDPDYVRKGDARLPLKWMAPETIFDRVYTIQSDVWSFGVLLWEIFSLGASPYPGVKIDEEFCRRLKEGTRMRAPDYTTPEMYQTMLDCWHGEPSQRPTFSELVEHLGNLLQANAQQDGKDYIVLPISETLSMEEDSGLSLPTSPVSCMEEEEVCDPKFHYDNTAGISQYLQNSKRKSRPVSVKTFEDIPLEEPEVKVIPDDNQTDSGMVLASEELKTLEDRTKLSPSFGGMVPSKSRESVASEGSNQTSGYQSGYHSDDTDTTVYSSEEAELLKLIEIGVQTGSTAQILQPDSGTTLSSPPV
UniProt P17948, whole entry: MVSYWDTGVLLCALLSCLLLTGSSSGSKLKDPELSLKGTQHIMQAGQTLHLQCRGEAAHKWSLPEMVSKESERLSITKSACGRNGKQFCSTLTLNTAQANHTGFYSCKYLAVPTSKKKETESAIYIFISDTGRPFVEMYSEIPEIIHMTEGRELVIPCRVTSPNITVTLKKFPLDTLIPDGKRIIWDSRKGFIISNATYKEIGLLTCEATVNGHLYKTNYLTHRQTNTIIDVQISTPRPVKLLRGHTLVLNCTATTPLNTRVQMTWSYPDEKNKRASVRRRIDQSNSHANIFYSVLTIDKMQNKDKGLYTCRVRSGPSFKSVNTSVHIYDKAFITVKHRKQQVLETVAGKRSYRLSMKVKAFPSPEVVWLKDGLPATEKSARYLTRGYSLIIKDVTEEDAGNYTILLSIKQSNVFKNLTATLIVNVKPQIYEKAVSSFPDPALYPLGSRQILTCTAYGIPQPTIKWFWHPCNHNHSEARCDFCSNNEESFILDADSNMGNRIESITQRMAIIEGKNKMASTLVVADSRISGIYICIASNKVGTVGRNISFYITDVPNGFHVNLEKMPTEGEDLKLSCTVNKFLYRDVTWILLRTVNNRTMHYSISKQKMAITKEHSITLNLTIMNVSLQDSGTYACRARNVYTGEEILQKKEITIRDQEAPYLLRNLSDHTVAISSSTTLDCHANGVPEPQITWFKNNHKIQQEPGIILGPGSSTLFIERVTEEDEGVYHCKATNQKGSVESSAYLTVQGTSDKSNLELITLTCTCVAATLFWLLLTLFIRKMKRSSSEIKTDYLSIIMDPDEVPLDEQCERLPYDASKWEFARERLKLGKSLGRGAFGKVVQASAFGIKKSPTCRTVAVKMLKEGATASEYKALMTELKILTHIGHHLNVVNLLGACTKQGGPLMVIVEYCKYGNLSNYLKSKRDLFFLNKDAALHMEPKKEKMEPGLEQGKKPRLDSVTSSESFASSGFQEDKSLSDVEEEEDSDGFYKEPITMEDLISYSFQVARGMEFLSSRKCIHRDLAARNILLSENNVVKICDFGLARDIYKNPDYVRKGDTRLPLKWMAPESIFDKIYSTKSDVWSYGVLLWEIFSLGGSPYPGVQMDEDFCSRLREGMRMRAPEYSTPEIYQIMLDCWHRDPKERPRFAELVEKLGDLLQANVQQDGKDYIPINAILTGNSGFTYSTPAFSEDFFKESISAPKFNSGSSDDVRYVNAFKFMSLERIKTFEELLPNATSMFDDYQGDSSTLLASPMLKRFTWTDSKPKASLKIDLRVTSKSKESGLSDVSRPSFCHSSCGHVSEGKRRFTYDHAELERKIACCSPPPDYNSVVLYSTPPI

Assay [1] has as its target Epithelial discoidin domain-containing receptor 1 (Homo sapiens) (UniProt Q08345). The assay is described as follows: Inhibition of DDR1 (unknown origin) at 1 uM by kinase-profiling analysis.
Assay [2] addresses Cyclin-dependent kinase 17 (Homo sapiens) (UniProt Q00537). The assay is described as follows: Inhibition of PCTAIRE2 (unknown origin) at 1 uM by kinase-profiling analysis.
The target in assay [3] is Tyrosine-protein kinase Lyn (Homo sapiens) (UniProt P07948). The assay is described as follows: Inhibition of LYN (unknown origin) at 1 uM by kinase-profiling analysis.
The target in assay [4] is Tyrosine-protein kinase Lck (Homo sapiens) (UniProt P06239). The assay is described as follows: Inhibition of LCK (unknown origin) at 1 uM by kinase-profiling analysis.
The target in assay [5] is Proto-oncogene tyrosine-protein kinase ROS (Homo sapiens) (UniProt P08922). The assay is described as follows: Inhibition of ROS (unknown origin) at 1 uM by kinase-profiling analysis.
Assay [6] addresses T1, Serine/threonine-protein kinase TAO1 (Homo sapiens) (UniProt Q7L7X3).
T1 sequence (whole entry): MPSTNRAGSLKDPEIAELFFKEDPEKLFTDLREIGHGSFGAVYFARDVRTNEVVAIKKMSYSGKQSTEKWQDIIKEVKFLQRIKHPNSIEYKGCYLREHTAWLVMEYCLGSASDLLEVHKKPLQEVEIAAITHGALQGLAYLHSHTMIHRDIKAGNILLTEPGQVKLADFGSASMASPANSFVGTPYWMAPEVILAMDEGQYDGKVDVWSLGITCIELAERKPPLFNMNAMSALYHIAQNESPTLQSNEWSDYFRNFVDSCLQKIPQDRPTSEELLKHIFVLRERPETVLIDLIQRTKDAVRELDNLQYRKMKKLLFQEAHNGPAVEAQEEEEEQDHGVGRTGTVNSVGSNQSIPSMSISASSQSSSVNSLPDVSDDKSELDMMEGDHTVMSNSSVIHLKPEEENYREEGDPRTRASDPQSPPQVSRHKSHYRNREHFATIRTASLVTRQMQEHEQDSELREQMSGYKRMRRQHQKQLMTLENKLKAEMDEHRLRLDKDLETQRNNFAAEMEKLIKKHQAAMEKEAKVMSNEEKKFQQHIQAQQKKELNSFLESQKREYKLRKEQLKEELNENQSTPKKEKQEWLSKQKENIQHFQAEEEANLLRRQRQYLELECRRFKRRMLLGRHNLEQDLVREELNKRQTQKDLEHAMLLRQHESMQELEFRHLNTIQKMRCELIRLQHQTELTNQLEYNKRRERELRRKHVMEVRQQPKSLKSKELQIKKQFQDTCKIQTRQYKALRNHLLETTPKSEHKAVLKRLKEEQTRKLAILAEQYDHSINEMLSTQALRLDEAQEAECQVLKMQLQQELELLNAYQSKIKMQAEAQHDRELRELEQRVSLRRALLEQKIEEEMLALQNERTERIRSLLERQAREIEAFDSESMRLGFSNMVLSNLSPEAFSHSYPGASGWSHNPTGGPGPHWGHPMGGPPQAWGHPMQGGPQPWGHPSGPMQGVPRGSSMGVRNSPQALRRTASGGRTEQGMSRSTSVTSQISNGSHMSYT
The assay is described as follows: Inhibition of TAO1 (unknown origin) at 1 uM by kinase-profiling analysis.

In assay [7] the target is T2, Serine/threonine-protein kinase MAK (Homo sapiens) (UniProt P20794).
T2 sequence (whole entry): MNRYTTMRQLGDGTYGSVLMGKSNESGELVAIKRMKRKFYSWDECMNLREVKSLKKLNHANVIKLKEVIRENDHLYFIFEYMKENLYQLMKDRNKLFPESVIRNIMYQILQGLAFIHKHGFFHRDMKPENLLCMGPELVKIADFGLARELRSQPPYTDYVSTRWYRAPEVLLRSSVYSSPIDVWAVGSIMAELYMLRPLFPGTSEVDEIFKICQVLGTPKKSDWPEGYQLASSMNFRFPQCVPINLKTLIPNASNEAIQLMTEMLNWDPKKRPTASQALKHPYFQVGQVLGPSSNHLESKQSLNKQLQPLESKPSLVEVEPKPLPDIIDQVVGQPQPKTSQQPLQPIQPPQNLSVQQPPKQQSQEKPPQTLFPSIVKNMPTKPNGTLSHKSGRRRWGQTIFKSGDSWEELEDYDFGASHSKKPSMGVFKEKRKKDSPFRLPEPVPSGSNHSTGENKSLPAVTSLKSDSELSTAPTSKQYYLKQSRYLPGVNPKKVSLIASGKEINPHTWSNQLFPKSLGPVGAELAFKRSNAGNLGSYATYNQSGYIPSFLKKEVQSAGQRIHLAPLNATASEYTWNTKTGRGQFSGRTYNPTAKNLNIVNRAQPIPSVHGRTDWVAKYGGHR
The assay is described as follows: Inhibition of MAK (unknown origin) at 1 uM by kinase-profiling analysis.

Assay [8] addresses Cyclin-dependent kinase 4 (Homo sapiens) (UniProt P11802). The assay is described as follows: Inhibition of CDK4 (unknown origin) at 1 uM by kinase-profiling analysis.
For assay [9], the target named is Phosphorylase b kinase gamma catalytic chain, skeletal muscle/heart isoform (Homo sapiens) (UniProt Q16816). The assay is described as follows: Inhibition of PHKg1 (unknown origin) at 1 uM by kinase-profiling analysis.
Assay [10] has as its target Dual specificity protein kinase CLK2 (Homo sapiens) (UniProt P49760). The assay is described as follows: Inhibition of CLK2 (unknown origin) at 1 uM by kinase-profiling analysis.
The target in assay [11] is Cyclin-dependent kinase 6 (Homo sapiens) (UniProt Q00534). The assay is described as follows: Inhibition of CDK6 (unknown origin) at 1 uM by kinase-profiling analysis.
Assay [12] addresses Cyclin-dependent kinase 16 (Homo sapiens) (UniProt Q00536). The assay is described as follows: Inhibition of PCTAIRE1 (unknown origin) at 1 uM by kinase-profiling analysis.
Assay [13] concerns the target Vascular endothelial growth factor receptor 2 (Homo sapiens) (UniProt P35968). The assay is described as follows: Inhibition of KDR (unknown origin) at 1 uM by kinase-profiling analysis.
The target of assay [14] is Mast/stem cell growth factor receptor Kit (Homo sapiens) (UniProt P10721). The assay is described as follows: Inhibition of KIT (unknown origin) at 1 uM by kinase-profiling analysis.
Assay [15] addresses T3, Discoidin domain-containing receptor 2 (Homo sapiens) (UniProt Q16832).
T3 sequence (whole entry): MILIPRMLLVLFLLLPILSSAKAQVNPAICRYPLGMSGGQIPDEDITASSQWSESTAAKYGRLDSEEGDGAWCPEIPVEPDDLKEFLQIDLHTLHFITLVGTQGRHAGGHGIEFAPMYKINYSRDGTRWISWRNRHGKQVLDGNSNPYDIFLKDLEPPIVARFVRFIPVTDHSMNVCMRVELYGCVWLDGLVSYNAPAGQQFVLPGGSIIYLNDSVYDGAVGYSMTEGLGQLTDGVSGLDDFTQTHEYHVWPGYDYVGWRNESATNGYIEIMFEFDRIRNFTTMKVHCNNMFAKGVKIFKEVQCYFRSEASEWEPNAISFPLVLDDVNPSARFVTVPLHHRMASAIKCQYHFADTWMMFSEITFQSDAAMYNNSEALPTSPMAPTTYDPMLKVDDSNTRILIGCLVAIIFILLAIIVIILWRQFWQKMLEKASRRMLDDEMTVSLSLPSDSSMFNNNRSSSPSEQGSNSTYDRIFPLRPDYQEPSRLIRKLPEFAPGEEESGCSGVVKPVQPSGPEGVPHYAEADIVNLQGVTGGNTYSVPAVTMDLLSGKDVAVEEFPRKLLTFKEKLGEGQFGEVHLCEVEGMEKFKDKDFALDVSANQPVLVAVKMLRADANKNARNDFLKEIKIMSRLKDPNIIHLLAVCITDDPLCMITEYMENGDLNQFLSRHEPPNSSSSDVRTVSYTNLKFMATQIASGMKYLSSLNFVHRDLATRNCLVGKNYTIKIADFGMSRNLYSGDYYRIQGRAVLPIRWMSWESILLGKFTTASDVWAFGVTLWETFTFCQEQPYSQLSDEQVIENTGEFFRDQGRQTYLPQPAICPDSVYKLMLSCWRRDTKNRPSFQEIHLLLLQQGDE
The assay is described as follows: Inhibition of DDR2 (unknown origin) at 1 uM by kinase-profiling analysis.

The target in assay [16] is Vascular endothelial growth factor receptor 1 (Homo sapiens) (UniProt P17948). The assay is described as follows: Inhibition of FLT1 (unknown origin) at 1 uM by kinase-profiling analysis.
Assay [17] concerns the target Vascular endothelial growth factor receptor 3 (Homo sapiens) (UniProt P35916). The assay is described as follows: Inhibition of FLT4 (unknown origin) at 1 uM by kinase-profiling analysis.
For assay [18], the target named is T4, Mitogen-activated protein kinase kinase kinase 3 (Homo sapiens) (UniProt Q99759).
T4 sequence (whole entry): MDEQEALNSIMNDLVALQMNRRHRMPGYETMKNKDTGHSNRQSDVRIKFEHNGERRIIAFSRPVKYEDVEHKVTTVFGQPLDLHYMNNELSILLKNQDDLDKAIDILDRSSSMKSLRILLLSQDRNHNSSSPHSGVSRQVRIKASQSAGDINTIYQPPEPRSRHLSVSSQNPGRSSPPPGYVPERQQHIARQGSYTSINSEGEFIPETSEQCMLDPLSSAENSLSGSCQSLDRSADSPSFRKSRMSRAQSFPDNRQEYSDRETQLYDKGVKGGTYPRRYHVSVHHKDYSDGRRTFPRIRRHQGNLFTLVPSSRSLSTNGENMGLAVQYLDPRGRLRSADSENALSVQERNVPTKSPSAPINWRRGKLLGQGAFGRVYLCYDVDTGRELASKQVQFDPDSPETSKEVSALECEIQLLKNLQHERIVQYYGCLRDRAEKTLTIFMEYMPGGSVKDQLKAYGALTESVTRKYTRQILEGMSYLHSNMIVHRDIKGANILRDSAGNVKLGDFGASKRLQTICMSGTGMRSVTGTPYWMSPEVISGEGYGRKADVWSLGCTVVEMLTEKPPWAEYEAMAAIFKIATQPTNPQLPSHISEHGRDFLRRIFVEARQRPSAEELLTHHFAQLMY
The assay is described as follows: Inhibition of MAP3K3 (unknown origin) at 1 uM by kinase-profiling analysis.

SMILES strings stand for the structures.

For the compound `CCN1CCN(c2ccc(Nc3ncnc(-c4cccnc4Nc4c(Cl)c(OC)cc(OC)c4Cl)n3)cc2)CC1`, the inhibition in assay [1] was 98%; in [2], 97.7%; in assay [3] it was 95%; in [4] it was 94.7%; in [5], 99%; in [6], 98.2%. Besides, the inhibition in assay [7] is 97.9%; in assay [8], 97.1%; in [9] it was 93.6%; in assay [10], 92.8%; in assay [11], 92.5%; in assay [12], 91.1%.
In the case of `COc1cc(OC)c(Cl)c(Nc2ncccc2-c2ncnc(Nc3cnn(C4CCN(C(C)C)CC4)c3)n2)c1Cl`, the inhibition in assay [1] was determined as 99.7%; in assay [2] it was 91.7%; in assay [3], 93.9%; in assay [4] it was 90.5%; in assay [13], 97.4%; in assay [14] it was 92.3%. Besides, the inhibition in assay [15] stood at 92.3%; in assay [16] it was 92%; in [17], 91.7%; in assay [18], 91.1%.

A word on the inhibition: it is the change of the read-out against control, counted positive when it falls.
